Patent US9155743B2, “Bicyclic heterocycle compounds and their uses in therapy” (priority 2011, dated 2015)

Columns and labels:
[1] = test system: EVSA-T (human breast carcinoma); assay: Anti-proliferative activity, Alamar Blue assay, EVSA-T; format: cell-based
XIAP or cIAP1 = assay: Assays using XIAP and cIAP1 (result stated for XIAP or cIAP1); format: binding, human
cIAP-1 BIR3 domain = cIAP-1 BIR3 domain (Homo sapiens (Human), UniProt Q13490); assay: cIAP-1 in vitro competitive displacement binding assay (fluorescence polarization); settings: AbuRPFK(5&6FAM)-amide probe (Probe B); given as ranges; read-out: IC50 or PI cIAP1
[2] = 72 h, read-out: EC50 or PI EVSA-T prolif
[3] = read-out: EC50 or greater than 50% at 10 μM
[4] = read-out: IC50 or at least 50% inhibition of the activity at a concentration of 1 μM
[5] = read-out: IC50 or at least 50% inhibition of the activity at a concentration of 10 μM

| SMILES | pEC50 [1, 2] | pEC50 [1, 3] | pIC50 (XIAP or cIAP1; [4]) | pIC50 (XIAP or cIAP1; [5]) | pIC50 (cIAP-1 BIR3 domain) |
| --- | --- | --- | --- | --- | --- |
| CN[C@@H](C)C(=O)Nc1ccc2c(n1)CN(C(C)CC(C)(C)C)C(=O)N2c1cccc(Cl)c1 (stereo partly drawn) [Example 39, (S)-N-[1-(3-Chloro-phenyl)-2-oxo-3-(1,3,3-trimethyl-butyl)-1,2,3,4-tetrahydro-pyrido[3,2-d]pyrimidin-6-yl]-2-methylamino-propionamide] | 6.00 | > 5.00 | – | – | – |
| CN[C@@H](C)C(=O)Nc1ccc2c(n1)CN(C(C)C)C(=O)N2c1cccc(Cl)c1 [Example 32, (S)-N-[1-(3-Chloro-phenyl)-3-isopropyl-2-oxo-1,2,3,4-tetrahydro-pyrido[3,2-d]pyrimidin-6-yl]-2-methylamino-propionamide hydrochloride] | 5.80 | > 5.00 | – | – | – |
| CN[C@@H](C)C(=O)Nc1ccc2c(n1)OC(C)(CC(C)C)C(=O)N2c1cccc(Cl)c1 (stereo partly drawn) [Example 12, (S)—N-[1-(3-Chloro-phenyl)-3-isobutyl-3-methyl-2-oxo-2,3-dihydro-1H-pyrido[2,3-b][1,4]oxazin-6-yl]-2-methylamino-propionamide] | 6.96 | > 5.00 | – | – | – |
| CN[C@@H](C)C(=O)Nc1ccc2c(n1)OC(C)(Cc1ccccc1)C(=O)N2c1cccc(Cl)c1 (stereo partly drawn) [Example 11, (S)-N-[3-Benzyl-1-(3-chloro-phenyl)-3-methyl-2-oxo-2,3-dihydro-1H-pyrido[2,3-b][1,4]oxazin-6-yl]-2-methylamino-propionamide hydrochloride] | 6.96 | > 5.00 | – | – | – |
| CN[C@@H](C)C(=O)Nc1ccc2c(n1)OC(C)(CCC(C)C)C(=O)N2c1ccccc1 (stereo partly drawn) [Example 14, (S)-2-Methylamino-N-[3-methyl-3-(3-methyl-butyl)-2-oxo-1-phenyl-2,3-dihydro-1H-pyrido[2,3-b][1,4]oxazin-6-yl]-propionamide hydrochloride] | – | – | > 6.00 | > 5.00 | – |
| CCCN1Cc2nc(NC(=O)[C@H](C)NC)ccc2N(c2ccccc2)C1=O [Example 28, (S)-2-Methylamino-N-(2-oxo-1-phenyl-3-propyl-1,2,3,4-tetrahydro-pyrido[3,2-d]pyrimidin-6-yl)-propionamide hydrochloride] | 5.66 | > 5.00 | – | – | – |
| CN[C@@H](C)C(=O)Nc1ccc2c(n1)CN(C(C)CC(C)C)C(=O)N2c1ccc(Cl)cc1 (stereo partly drawn) [Example 34, (S)-N-[1-(4-Chloro-phenyl)-3-(1,3-dimethyl-butyl)-2-oxo-1,2,3,4-tetrahydro-pyrido[3,2-d]pyrimidin-6-yl]-2-methylamino-propionamide hydrochloride] | 6.62 | > 5.00 | – | – | – |
| CN[C@@H](C)C(=O)Nc1ccc2c(n1)CN(C(C)C)C(=O)N2c1ccc(Cl)cc1 [Example 31, (S)-N-[1-(4-Chloro-phenyl)-3-isopropyl-2-oxo-1,2,3,4-tetrahydro-pyrido[3,2-d]pyrimidin-6-yl]-2-methylamino-propionamide hydrochloride] | 6.31 | > 5.00 | – | – | – |
| CN[C@@H](C)C(=O)Nc1ccc2c(n1)CN(C1CCCC1)C(=O)N2c1ccc(Cl)cc1 [Example 30, (S)-N-[1-(4-Chloro-phenyl)-3-cyclopentyl-2-oxo-1,2,3,4-tetrahydro-pyrido[3,2-d]pyrimidin-6-yl]-2-methylamino-propionamide hydrochloride] | 6.41 | > 5.00 | – | – | – |
| CN[C@@H](C)C(=O)Nc1ccc2c(n1)CNC(=O)N2c1ccc(Cl)cc1 [Example 22, (S)—N-[1-(4-Chloro-phenyl)-2-oxo-1,2,3,4-tetrahydro-pyrido[3,2-d]pyrimidin-6-yl]-2-methylamino-propionamide hydrochloride] | 6.16 | > 5.00 | – | – | – |
| CN[C@@H](C)C(=O)Nc1ccc2c(n1)CN(CCc1ccccc1)C(=O)N2c1ccc(Cl)cc1 [Example 41, (S)—N-[1-(4-Chloro-phenyl)-2-oxo-3-phenethyl-1,2,3,4-tetrahydro-pyrido[3,2-d]pyrimidin-6-yl]-2-methylamino-propionamide hydrochloride] | 5.60 | > 5.00 | – | – | – |
| CN[C@@H](C)C(=O)Nc1ccc2c(n1)CNC(=O)N2c1ccccc1 [Example 19, (S)-2-Methylamino-N-(2-oxo-1-phenyl-1,2,3,4-tetrahydro-pyrido[3,2-d]pyrimidin-6-yl)-propionamide hydrochloride] | 5.52 | – | – | – | – |
| CN[C@@H](C)C(=O)Nc1ccc2c(n1)CN(C1CCCCC1)C(=O)N2c1ccc(Cl)cc1 [Example 29, (S)—N-[1-(4-Chloro-phenyl)-3-cyclohexyl-2-oxo-1,2,3,4-tetrahydro-pyrido[3,2-d]pyrimidin-6-yl]-2-methylamino-propionamide hydrochloride] | 6.47 | > 5.00 | – | – | – |
| CN[C@@H](C)C(=O)Nc1ccc2c(n1)CN(Cc1ccccc1)C(=O)N2c1ccccc1 [Example 18, (S)—N-(3-Benzyl-2-oxo-1-phenyl-1,2,3,4-tetrahydro-pyrido[3,2-d]pyrimidin-6-yl)-2-methylamino-propionamide hydrochloride] | 6.07 | – | – | – | – |
| CN[C@@H](C)C(=O)Nc1ccc2c(n1)CN(c1ccc(Cl)cc1)C(=O)N2c1ccc(Cl)cc1 [Example 21, (S)—N-[1,3-Bis-(4-chloro-phenyl)-2-oxo-1,2,3,4-tetrahydro-pyrido[3,2-d]pyrimidin-6-yl]-2-methylamino-propionamide hydrochloride] | 6.04 | > 5.00 | – | – | – |
| CN[C@@H](C)C(=O)Nc1ccc2c(n1)CN(c1cc(Cl)ccc1F)C(=O)N2c1ccccc1 [Example 27, (S)—N-[3-(5-Chloro-2-fluoro-phenyl)-2-oxo-1-phenyl-1,2,3,4-tetrahydro-pyrido[3,2-d]pyrimidin-6-yl]-2-methylamino-propionamide hydrochloride] | 5.92 | > 5.00 | – | – | – |
| CN[C@@H](C)C(=O)Nc1ccc2c(n1)CN(C)C(=O)N2c1ccc(Cl)cc1 [Example 26, (S)—N-[1-(4-Chloro-phenyl)-3-methyl-2-oxo-1,2,3,4-tetrahydro-pyrido[3,2-d]pyrimidin-6-yl]-2-methylamino-propionamide hydrochloride] | 5.80 | > 5.00 | – | – | – |
| CN[C@@H](C)C(=O)Nc1ccc2c(n1)CN(c1ccccc1)C(=O)N2c1ccccc1 [Example 23, (S)-2-Methylamino-N-(2-oxo-1,3-diphenyl-1,2,3,4-tetrahydro-pyrido[3,2-d]pyrimidin-6-yl)-propionamide hydrochloride] | 5.85 | > 5.00 | – | – | – |
| CN[C@@H](C)C(=O)Nc1ccc2c(n1)OC(C)(C)C(=O)N2c1cccc(Cl)c1 [Example 10, (S)—N-[1-(3-Chloro-phenyl)-3,3-dimethyl-2-oxo-2,3-dihydro-1H-pyrido[2,3-b][1,4]oxazin-6-yl]-2-methylamino-propionamide hydrochloride] | 7.04 | > 5.00 | – | – | – |
| CCC1(CC)Oc2nc(NC(=O)[C@H](C)NC)ccc2N(c2ccc(Cl)cc2)C1=O [Example 5, (S)—N-[1-(4-Chloro-phenyl)-3,3-diethyl-2-oxo-2,3-dihydro-1H-pyrido[2,3-b][1,4]oxazin-6-yl]-2-methylamino-propionamide hydrochloride] | – | – | > 6.00 | > 5.00 | 6.00 to 8.00 |

pEC50, pIC50: −log10 of the molar value. Counter-ions that a name gives are not always drawn. Like-named read-outs stand apart in the source and are kept apart here.
